Where two headings read alike, the source gives them in different places. Marks after values point to notes of the source that are not given here.
Test system: experimental allergic encephalomyelitis (EAE) in the Lewis rat
Details: for effect on the course of neurological EAE: compared to undosed and vehicle; for Number diseased/total: 5 days prior to inoculation and 25 days PI; for Number diseased/total / Mean day of final symptom loss (±SD) / Mean day of symptom onset (±SD) / Mean duration of symptoms (day ± SD) / Number of dead/total: n=7
[1] = Lewis rat, 1000 mg/kg body weight/day
[2] = Lewis rat, neat oil oral 1000 mg/kg body weight/day
[3] = rat, in vivo, po, 1000 mg/kg/day

Row | Structure (SMILES) | effect on the course of neurological EAE [1] | FT (flaccid tail): Number of animals showing symptoms/total [2] | HLH (hind limb hypotonia): Number of animals showing symptoms/total [2] | Symptom onset, loss of signs and disease duration compared to control groups [2] | Number diseased/total [2] | Mean day of final symptom loss (±SD) [2] | Mean day of symptom onset (±SD) [2] | Mean duration of symptoms (day ± SD) [2] | Number of dead/total [2] | CHLP (complete hind limb paralysis): Number of animals showing symptoms/total [3] | PHLP (partial hind limb paralysis): Number of animals showing symptoms/total [3] | animals displaying initial disease symptoms [1] | mean cumulative neurological scores (Lewis rat, 1000 mg/kg body weight/day, beginning 14 days PI) | PHLP (partial hind limb paralysis): Number of animals showing symptoms/total [2]
1 | CCCCC/C=C\C/C=C\C/C=C\CCCCC(=O)OCCCOC(=O)CCCC/C=C\C/C=C\C/C=C\CCCCC [GLA:GLA, 1,3-Di(z,z,z-6,9,12-Octadecatrienoyloxy)propane, reference compound] | did not alter the course of neurological EAE | 7/7 | 7/7 | not significantly different compared to control groups | 7/7 | 18.0 ± 0.7 days | 11.9 ± 0.9 days | 6.1 ± 0.8 days | 2/7 | 3/7 | 4/7 |  |  | 
2 | CCCCCCCC/C=C\CCCCCCCCCCCCCC(=O)OCCCOC(=O)CCCCCCCCCCCCC/C=C\CCCCCCCC [NA:NA, 1,3-di-(z-15-tetracosenoyloxy)propane] | clearly reduced the overall intensity of disease | 7/7 | 4/7 | not significantly different compared to control groups | 7/7 | 17.6 ± 1.6 days | 12.4 ± 1.5 days | 5.2 ± 1.6 days | 0/7 | 0/7 |  | 4/7 | consistently lower than undosed and vehicle treatments | 0/7 #

From patent US6664406B1, “Nervonic acid derivatives, their preparation and use” (Croda International PLC, priority 1999, dated 2003)
